According to patent publication US20050106639A1, “Method for quantification of AKT protein expression” (Ventana Medical Systems, Inc., priority 2000, published 2005):

Tests used:
Assay type in all cases: cell-based
AKT-1 = assay: Immunoprecipitation and anti-phospho-Akt Western blot, AKT-1
Protocol: (§1) MDA-MB-435 and MDA-MB-435/HER-2 cells were obtained from Dr. Yu at the UTMD Anderson Cancer Center, Houston, Tex. Cells were grown in RPMI 1640 supplemented as above in 8% CO2 at 37° C. Western blotting was done as follows. Cells were lysed in lysis buffer (50 mM Tris-HCl, pH 7.4, 150 mM sodium chloride, 1 mM EDTA, 1% Nonidet P-40, 1 mM sodium orthovanadate, 1 mM sodium fluoride, 1 mM phenylmethylsulfonyl fluoride, 2 ug/ml pepstatin, 2 ug/ml leupeptin, 2 ug/ml aprotinin), centrifuged at 4° C. for 5 min at 6500 g, and protein concentration was determined with a BioRad Protein Assay Kit (BioRad, Hercules, Cailf.). Proteins were separated by electrophoresis using a Bis-Tris NuPAGE system with 1× MOPS running buffer (Novex, San Diego, Cailf.) and transferred to Hybond C-extra membrane (Amersham Pharmacia Biotech, Piscataway, N.J.). […] The MDA-MB-435/HER-2 cells over-express HER-2/neu 10-fold compared with the parental MDA-MB-435 cell line as determined by Western blot analysis. […]
(§2) The activated (phosphorylated) state of total AKT (AKT-1 plus AKT-2) in cells over-expressing HER-2/neu was measured to study the functional significance of c-akt in HER-2/neu over-expressing cells and cancers. […] Activated AKT was determined by antibodies that specifically recognize the phosphorylated state of AKT protein. […]

AKT-2 = assay: Immunoprecipitation and anti-phospho-Akt Western blot, AKT-2
Protocol: as §1, §2

[1] = tested on: total AKT (AKT-1 plus AKT-2); assay: Western blot of activated (phosphorylated) total AKT in HER-2/neu over-expressing cells; details: SKBR3, BR474, AU565 cells, Heregulin 10 ng/ml or Herceptin 20 mg/ml
Protocol: as §1, §2

[2] = SKBR3, BR474, AU565 cells, Heregulin 10 ng/ml or Herceptin 20 mg/ml, Western blot

## Herceptin: monoclonal antibody against HER-2/neu
AKT-1; [2]
  AKT-1 phosphorylation: decreased
AKT-1; exposure for 3 days
  phosphorylated state of AKT-1: down-regulation
AKT-2; [2]
  level of AKT-2 phosphorylation after treatment: remained high
AKT-2; exposure for 3 days
  phosphorylated state of AKT-2: did not affect
[1]
  phosphorylation of total AKT: decreased
